For the assay, the species on record is Mus musculus. The assay is described as follows: Inhibitory concentration using mouse vas deferens (MVD) assay.

In general, IC50 refers to the concentration that gives 50% inhibition. Low values mean higher potency, high ones lower potency. `COc1ccc(C)c(OC(CCN2CCC(n3c(=O)[nH]c4ccccc43)CC2)C(C)C)c1` (stereo unspecified) [ORGANON] registered an IC50 of 0.977 µM.

The values above are taken from ChEMBL document CHEMBL1144273, “Synthesis and SAR studies of 3-phenoxypropyl piperidine analogues as ORL1 (NOP) receptor agonists” (Bioorg Med Chem Lett, 2005).
